Measured values: patent publication EP0417558A2, “S-haloalkyl(di)(tri)(thio)phosphoric(phosphonic)acid(amide) esters” (dated 1991)

How the values were obtained:
[1] = system: Lucilia cuprina resistent-Larven; test: Test with resistant Lucilia cuprina larvae; details: 1000 ppm; after 24 h
[2] = system: Blattella germanica; test: Impregnated filter paper test with cockroaches (Example C); details: 1000 ppm; Blatella germanica; adults on impregnated filter paper

In the case of `CCOP(=O)(SC(F)(F)C(F)(Cl)Cl)N(CC)CC` (racemic), the Abtötungsgrad [1] is reported as 100% and the Wirkung [2] is reported as 100%.

Only a part of the results on these compounds is given; other tests are left out.
